Measured values taken from patent US20090023602A1 (Genentech, published 2009).

Sequences of proteins named here, by UniProt entry; tags and fusion partners are left off. A line that says so, or that is headed by a name, gives the form on record, which may keep a tag or linker.
UniProt P15692, other isoform, or with tags, fused parts or gaps limits assumed: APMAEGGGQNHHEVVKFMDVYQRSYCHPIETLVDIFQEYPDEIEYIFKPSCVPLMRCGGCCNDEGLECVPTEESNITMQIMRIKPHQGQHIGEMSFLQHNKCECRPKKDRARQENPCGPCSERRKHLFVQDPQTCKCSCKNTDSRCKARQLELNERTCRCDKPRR
UniProt Q00731, other isoform, or with tags, fused parts or gaps limits assumed: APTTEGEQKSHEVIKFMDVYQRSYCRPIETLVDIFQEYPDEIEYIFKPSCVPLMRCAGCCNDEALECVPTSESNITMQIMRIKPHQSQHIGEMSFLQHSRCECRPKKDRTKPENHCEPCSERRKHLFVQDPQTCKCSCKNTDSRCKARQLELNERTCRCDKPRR

Assays:
[1] = molecular target: T1, human VEGF (human, UniProt P15692-4 27-191, limits assumed); assay: BIACORE, h-VEGF coated on the chip, Fab injected
T1 construct: Coated on immunoplates; also called hVEGF; h-VEGF

[2] = molecular target: T2, murine VEGF (murine, UniProt Q00731-2 27-190, limits assumed); assay: BIACORE, m-VEGF coated on the chip, Fab injected
T2 construct: Coated on immunoplates; also called mVEGF

Kd [1] | Kd [2] | Binder
2 nM |  | YADS-1 (Fab, V domains shown) VH: EVQLVESGGGLVQPGGSLRLSCAASGFDIYDDDIHWVRQAPGKGLEWVAYIAPSYGYTDYADSVKGRFTISADTSKNTAYLQMNSLRAEDTAVYYCSRSSDASYSYSAMDYWGQGTLVTVSS VL: DIQMTQSPSSLSASVGDRVTITCRASQASYSSVAWYQQKPGKAPKLLIYAASYLYSGVPSRFSGSGSGTDFTLTISSLQPEDFATYYCQSSASPATFGQGTKVEIK
10 nM |  | YADS-2 (Fab, V domains shown) VH: EVQLVESGGGLVQPGGSLRLSCAASGFAISDYDIHWVRQAPGKGLEWVADIAPYAGATAYADSVKGRFTISADTSKNTAYLQMNSLRAEDTAVYYCSRSSYAYYAAMDYWGQGTLVTVSS VL: DIQMTQSPSSLSASVGDRVTITCRASQSYAYAVAWYQQKPGKAPKLLIYDASYLYSGVPSRFSGSGSGTDFTLTISSLQPEDFATYYCQQAYSSPDTFGQGTKVEIK
3 nM | 2.5 nM | YADS-3 (Fab, V domains shown) VH: EVQLVESGGGLVQPGGSLRLSCAASGFSISDYDIHWVRQAPGKGLEWVAAIAPYSGSTYYADSVKGRFTISADTSKNTAYLQMNSLRAEDTAVYYCSRSSYAYYSAMDYWGQGTLVTVSS VL: DIQMTQSPSSLSASVGDRVTITCRASQASYYDVAWYQQKPGKAPKLLIYAASYLYSGVPSRFSGSGSGTDFTLTISSLQPEDFATYYCQQYYYAPATFGQGTKVEIK
